Results reported in US5700446A, “Synthesis of ferrocenyl phenyltropane analogs and their radio-transformation to technetium neuroprobes for mapping monoamine reuptake sites” (Neuro Imaging Technologies, LLC, priority 1996, dated 1997).

Sequences of proteins named here, by UniProt entry; tags and fusion partners are left off.
UniProt P23977, whole entry: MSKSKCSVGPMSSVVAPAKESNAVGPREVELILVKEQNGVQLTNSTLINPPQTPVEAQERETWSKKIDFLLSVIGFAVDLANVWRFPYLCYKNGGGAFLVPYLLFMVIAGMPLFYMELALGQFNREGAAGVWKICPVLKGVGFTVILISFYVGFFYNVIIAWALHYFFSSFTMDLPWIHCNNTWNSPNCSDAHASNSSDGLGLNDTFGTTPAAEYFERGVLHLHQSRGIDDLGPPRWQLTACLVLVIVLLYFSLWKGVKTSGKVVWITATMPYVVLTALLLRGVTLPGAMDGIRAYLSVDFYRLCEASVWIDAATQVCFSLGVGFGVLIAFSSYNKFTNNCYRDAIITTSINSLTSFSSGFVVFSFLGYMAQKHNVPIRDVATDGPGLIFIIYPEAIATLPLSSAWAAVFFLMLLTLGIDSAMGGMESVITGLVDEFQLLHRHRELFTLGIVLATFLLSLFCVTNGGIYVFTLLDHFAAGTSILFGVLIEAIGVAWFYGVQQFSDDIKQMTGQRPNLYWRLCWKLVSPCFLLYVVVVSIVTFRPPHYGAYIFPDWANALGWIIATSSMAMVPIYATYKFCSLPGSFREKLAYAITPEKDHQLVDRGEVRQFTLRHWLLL

Tests used:
dopamine transporter [1] = target: T1, dopamine transporter (Rattus norvegicus, UniProt P23977); conditions: [3H]GBR-12935, 13 Ci/mmol; read-out: Kd (radioligand, dopamine transporter assay); cited from earlier work
T1 construct: crude membrane fraction of homogenates of rat brain corpus striatum (for the dopamine transporter); from tissue; host or cells: rat brain corpus striatum, crude membrane fraction

[2] = target: norepinephrine transporter; conditions: [3H]nisoxetine, 50 Ci/mmol; read-out: Kd (radioligand, norepinephrine transporter assay); cited from earlier work
dopamine transporter [3] = target: T1, dopamine transporter; assay: Radioreceptor binding assay, dopamine transporter ([3H]GBR-12935), rat brain corpus striatum membranes; conditions: ratio of Ki for the dopamine transporter to the Ki for the serotonin transporter

Q: With `c1ccc(CCCN2CCN(CCOC(c3ccccc3)c3ccccc3)CC2)cc1` [[^3 H]GBR-12935] as the compound, how does the Kd (dopamine transporter [1]) read?
A: The Kd was 1 nM.

Q: With `CNCCC(Oc1ccccc1OC)c1ccccc1` (stereo not drawn) [[^3 H]nisoxetine] as the compound, how does the Kd [2] read?
A: Its Kd is 0.8 nM.

Q: Which “DAT/5-HTT Selectivity” value (dopamine transporter [3]) does the source give for `COC(=O)[C@H]1[C@@H](c2ccc(I)cc2)C[C@@H]2CC[C@H]1N2C` [β-CIT, 3β-(4-iodophenyl)-2β-(carbomethoxy)tropane, reference compound] here?
A: The value was 3.04.
